The record followed here is patent US20250368649A1, “TETRAHYDROPYRIDOPYRIMIDINE PAN-KRAS INHIBITORS” (Mirati Therapeutics, Inc., priority 2022, published 2025).

Chains of the proteins cited; added tags and fusions are not shown. Lines headed by an entry give the natural chain unless they say otherwise; changes in a name come on top.
UniProt P01116: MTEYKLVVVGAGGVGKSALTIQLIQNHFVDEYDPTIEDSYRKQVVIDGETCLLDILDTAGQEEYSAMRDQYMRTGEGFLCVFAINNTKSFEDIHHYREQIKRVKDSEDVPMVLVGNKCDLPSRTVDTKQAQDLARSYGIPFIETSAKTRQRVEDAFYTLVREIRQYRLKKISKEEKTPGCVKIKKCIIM

Holding throughout (test): biochemical
In one assay the target is KRas G12D (Homo sapiens, UniProt P01116, G12D). The settings on record: Binding to KRas (IC50 nM) G12D, TR-FRET displacement.
In a further assay the target is KRas G12R (Homo sapiens, UniProt P01116, G12R). The settings on record: Binding to KRas (IC50 nM) G12R, TR-FRET displacement.
Another assay has as its target KRas G12V (Homo sapiens, UniProt P01116, G12V). The note with it: Binding to KRas (IC50 nM) G12V, TR-FRET displacement.

For `CCc1cccc2cccc(N3CCc4c(nc(OCC56CCCN5CCC6)nc4N4CCC(O)CC(S(C)(=O)=O)C4)C3)c12` (single isomer, unassigned) [Example 480, 1-(7-(8-ethylnaphthalen-1-yl)-2-((tetrahydro-1H-pyrrolizin-7a(5H)-yl)methoxy)-5,6,7,8-tetrahydropyrido[3,4-d]pyrimidin-4-yl)-6-(methylsulfonyl)azepan-4-ol], the IC50 at KRas G12D was found to be 229 nM; on KRas G12R, 53 nM; at KRas G12V, 35 nM.

Take `Cc1cc2[nH]ncc2c(N2CCc3c(nc(OCC45CCCN4CCC5)nc3N3CCCC4(CC(O)C4)C3)C2)c1C` (single isomer, unassigned; isomer 2) [Example 454, 6-(7-(5,6-dimethyl-1H-indazol-4-yl)-2-((hexahydro-1H-pyrrolizin-7a-yl)methoxy)-5,6,7,8-tetrahydropyrido[3,4-d]pyrimidin-4-yl)-6-azaspiro[3.5]nonan-2-ol (isomer 2)]: the IC50 is 817 nM on KRas G12D, 703 nM on KRas G12R and 333 nM on KRas G12V.

For the compound `CCc1c(F)ccc2cc(O)cc(N3CCc4c(nc(OC[C@@]56CCCN5C[C@H](F)C6)nc4N4CCCc5c(cnn5C5COC5)C4)C3)c12` [Example 243, 5-ethyl-6-fluoro-4-(2-(((2R,7aS)-2-fluorohexahydro-1H-pyrrolizin-7a-yl)methoxy)-4-(1-(oxetan-3-yl)-7,8-dihydropyrazolo[4,3-c]azepin-5(1H,4H,6H)-yl)-5,6-dihydropyrido[3,4-d]pyrimidin-7(8H)-yl)naphthalen-2-ol], the IC50 at KRas G12D turned out to be 3190 nM; at KRas G12R it was 3260 nM; at KRas G12V it was 422 nM.

For `C=Cc1ncc2n1CCN(c1nc(OC[C@@]34CCCN3C[C@H](F)C4)nc3c1CCN(c1cc(O)cc4ccc(F)c(CC)c14)C3)C2` [Example 248, 5-ethyl-6-fluoro-4-(2-(((2R,7aS)-2-fluorohexahydro-1H-pyrrolizin-7a-yl)methoxy)-4-(3-vinyl-5,6-dihydroimidazo[1,5-a]pyrazin-7(8H)-yl)-5,6-dihydropyrido[3,4-d]pyrimidin-7(8H)-yl)naphthalen-2-ol], the IC50 is 1570 nM at KRas G12D, 515 nM at KRas G12R and 147 nM at KRas G12V.

Consider `CCc1c(F)ccc2cc(O)cc(N3CCc4c(nc(OC[C@@]56CCCN5C[C@H](F)C6)nc4N4CCCn5nc(C(=O)N6CC7CCC(C6)N7C)cc5C4)C3)c12` [Example 270], for which the IC50 at KRas G12D, on KRas G12R and at KRas G12V was under 2 nM throughout.

As for `CCc1cccc2cccc(N3CCc4c(nc(OCC5(CN(C)C)CC5)nc4N4CCOC5COCC5C4)C3)c12` (stereo not drawn) [Example 521, 1-(1-(((7-(8-ethylnaphthalen-1-yl)-4-(hexahydrofuro[3,4-f][1,4]oxazepin-4(5H)-yl)-5,6,7,8-tetrahydropyrido[3,4-d]pyrimidin-2-yl)oxy)methyl)cyclopropyl)-N,N-dimethylmethanamine], the IC50 on KRas G12D stood at 2720 nM; at KRas G12V, 235 nM.

`CCc1cccc2cccc(N3CCc4c(nc(OCC5(CN(C)C)CC5)nc4N4CCCC(c5cn(C)nn5)C4)C3)c12` (stereo not drawn) [Example 522, 1-(1-(((7-(8-ethylnaphthalen-1-yl)-4-(3-(1-methyl-1H-1,2,3-triazol-4-yl)piperidin-1-yl)-5,6,7,8-tetrahydropyrido[3,4-d]pyrimidin-2-yl)oxy)methyl)cyclopropyl)-N,N-dimethylmethanamine]: the results for the IC50 at KRas G12D and on KRas G12V were 3060 nM and 1850 nM, respectively.

As for `CCc1cccc2cccc(N3CCc4c(nc(OCC5(CN(C)C)CC5)nc4N4CCCC(c5nc(N)n(C)n5)C4)C3)c12` (stereo not drawn) [Example 523, 3-(1-(2-((1-((dimethylamino)methyl)cyclopropyl)methoxy)-7-(8-ethylnaphthalen-1-yl)-5,6,7,8-tetrahydropyrido[3,4-d]pyrimidin-4-yl)piperidin-3-yl)-1-methyl-1H-1,2,4-triazol-5-amine], the IC50 at KRas G12D turned out to be 3570 nM; at KRas G12V, 491 nM.

On to `CCc1cccc2cccc(N3CCc4c(nc(OCC5(CN(C)C)CC5)nc4N4CCn5ncc(S(N)(=O)=O)c5C4)C3)c12` [Example 524, 5-(2-((1-((dimethylamino)methyl)cyclopropyl)methoxy)-7-(8-ethylnaphthalen-1-yl)-5,6,7,8-tetrahydropyrido[3,4-d]pyrimidin-4-yl)-4,5,6,7-tetrahydropyrazolo[1,5-a]pyrazine-3-sulfonamide], for which the IC50 on KRas G12D turned out to be 4250 nM; at KRas G12V it was 14000 nM.

Turning to `CCc1cccc2cccc(N3CCc4c(nc(OCC5(CN(C)C)CC5)nc4NCc4nc(C5(O)CCOCC5)n[nH]4)C3)c12` [Example 525, 4-(5-(((2-((1-((dimethylamino)methyl)cyclopropyl)methoxy)-7-(8-ethylnaphthalen-1-yl)-5,6,7,8-tetrahydropyrido[3,4-d]pyrimidin-4-yl)amino)methyl)-1H-1,2,4-triazol-3-yl)tetrahydro-2H-pyran-4-ol], the results for the IC50 at KRas G12D and on KRas G12V were 5220 nM and 4500 nM, respectively.

For `CCc1cccc2cccc(N3CCc4c(nc(OCC5(CN(C)C)CC5)nc4NCc4nn(C)c(C)c4S(N)(=O)=O)C3)c12` [Example 527, 3-(((2-((1-((dimethylamino)methyl)cyclopropyl)methoxy)-7-(8-ethylnaphthalen-1-yl)-5,6,7,8-tetrahydropyrido[3,4-d]pyrimidin-4-yl)amino)methyl)-1,5-dimethyl-1H-pyrazole-4-sulfonamide], the IC50 on KRas G12D turned out to be 6140 nM; at KRas G12V, 14100 nM.

For `CCc1cccc2cccc(N3CCc4c(nc(OCC5(CN(C)C)CC5)nc4N4CCCC(c5nnc(N)o5)C4)C3)c12` (stereo not drawn) [Example 693, 5-(1-(2-((1-((dimethylamino)methyl)cyclopropyl)methoxy)-7-(8-ethylnaphthalen-1-yl)-5,6,7,8-tetrahydropyrido[3,4-d]pyrimidin-4-yl)piperidin-3-yl)-1,3,4-oxadiazol-2-amine], the results for the IC50 at KRas G12D and on KRas G12V were 3300 nM and 2400 nM, respectively.

Regarding `CCc1cccc2cccc(N3CCc4c(nc(OCC5(CN(C)C)CC5)nc4NCc4nc(-c5ccco5)n[nH]4)C3)c12` [Example 695, 2-((1-((dimethylamino)methyl)cyclopropyl)methoxy)-7-(8-ethylnaphthalen-1-yl)-N-((3-(furan-2-yl)-1H-1,2,4-triazol-5-yl)methyl)-5,6,7,8-tetrahydropyrido[3,4-d]pyrimidin-4-amine], the IC50 at KRas G12D was 3910 nM; at KRas G12V, 3990 nM.

For `CCc1cccc2cccc(N3CCc4c(nc(OCC5(CN(C)C)CC5)nc4N4CCCC(c5n[nH]c(=O)o5)C4)C3)c12` (stereo not drawn) [Example 696, 5-(1-(2-((1-((dimethylamino)methyl)cyclopropyl)methoxy)-7-(8-ethylnaphthalen-1-yl)-5,6,7,8-tetrahydropyrido[3,4-d]pyrimidin-4-yl)piperidin-3-yl)-1,3,4-oxadiazol-2(3H)-one], the IC50 on KRas G12D amounted to 5160 nM; at KRas G12V, 1960 nM.

Consider `CCc1cccc2cccc(N3CCc4c(nc(OCC5(CN(C)C)CC5)nc4N4CCCC(c5n[nH]c(C)n5)C4)C3)c12` (stereo not drawn) [Example 697, 1-(1-(((7-(8-ethylnaphthalen-1-yl)-4-(3-(5-methyl-1H-1,2,4-triazol-3-yl)piperidin-1-yl)-5,6,7,8-tetrahydropyrido[3,4-d]pyrimidin-2-yl)oxy)methyl)cyclopropyl)-N,N-dimethylmethanamine], for which the IC50 was determined as 3780 nM at KRas G12D and 1460 nM on KRas G12V.

Take `CCc1cccc2cccc(N3CCc4c(nc(OCC5(CN(C)C)CC5)nc4NCc4nc(-c5ccccn5)n[nH]4)C3)c12` [Example 698, 2-((1-((dimethylamino)methyl)cyclopropyl)methoxy)-7-(8-ethylnaphthalen-1-yl)-N-((3-(pyridin-2-yl)-1H-1,2,4-triazol-5-yl)methyl)-5,6,7,8-tetrahydropyrido[3,4-d]pyrimidin-4-amine]: the IC50 worked out at 6020 nM at KRas G12D and 4040 nM at KRas G12V.

For the compound `CCc1cccc2cccc(N3CCc4c(nc(OCC5(CN(C)C)CC5)nc4N(C)Cc4nnc5n4CCN(C)C5=O)C3)c12` [Example 702, 3-(((2-((1-((dimethylamino)methyl)cyclopropyl)methoxy)-7-(8-ethylnaphthalen-1-yl)-5,6,7,8-tetrahydropyrido[3,4-d]pyrimidin-4-yl)(methyl)amino)methyl)-7-methyl-6,7-dihydro-[1,2,4]triazolo[4,3-a]pyrazin-8(5H)-one], the IC50 was 2030 nM at KRas G12D and 1120 nM at KRas G12V.

On to `CCc1cccc2cccc(N3CCc4c(nc(OCC5(CN(C)C)CC5)nc4NCc4nc(C(C)O)n[nH]4)C3)c12` (stereo not drawn) [Example 704, 1-(5-(((2-((1-((dimethylamino)methyl)cyclopropyl)methoxy)-7-(8-ethylnaphthalen-1-yl)-5,6,7,8-tetrahydropyrido[3,4-d]pyrimidin-4-yl)amino)methyl)-1H-1,2,4-triazol-3-yl)ethan-1-ol], for which the results for the IC50 at KRas G12D and on KRas G12V were 3220 nM and 3080 nM, respectively.

`CCc1cccc2cccc(N3CCc4c(nc(OCC5(CN(C)C)CC5)nc4NCc4nc(C(C)(C)O)n[nH]4)C3)c12` [Example 707, 2-(5-(((2-((1-((dimethylamino)methyl)cyclopropyl)methoxy)-7-(8-ethylnaphthalen-1-yl)-5,6,7,8-tetrahydropyrido[3,4-d]pyrimidin-4-yl)amino)methyl)-1H-1,2,4-triazol-3-yl)propan-2-ol]: the IC50 at KRas G12D came to 6280 nM; on KRas G12V it was 3320 nM.

On to `CCc1cccc2cccc(N3CCc4c(nc(OCC5(CN(C)C)CC5)nc4NCc4nc(C(C)O)n[nH]4)C3)c12` (stereo not drawn) [Example 708, 1-(5-(((2-((1-((dimethylamino)methyl)cyclopropyl)methoxy)-7-(8-ethylnaphthalen-1-yl)-5,6,7,8-tetrahydropyrido[3,4-d]pyrimidin-4-yl)amino)methyl)-1H-1,2,4-triazol-3-yl)ethan-1-ol], for which the half-inhibitory concentration (IC50) on KRas G12D was 2260 nM; on KRas G12V, 2470 nM.
